Measured values reported in patent publication US9289509B2, “Uses of immunoconjugates targeting CD138” (Biotest AG, priority 2009, dated 2016).
Like-named read-outs stand apart in the source and are kept apart here.

Tested on: MOLP 8 human myeloma cells
[1] = lenalidomide 100 mg/kg per injection, total dose 1 g/kg

Nc1cccc2c1CN(C1CCC(=O)NC1=O)C2=O (stereo not shown) [Lenalidomide, reference compound]
Fractional tumor volume (FTV) (Lenalidomide alone, 100 mg/kg ip days 1-5 and 8-12, day 10): 1.00
Fractional tumor volume (FTV) (Lenalidomide alone, 100 mg/kg ip days 1-5 and 8-12, day 14): 0.82
Fractional tumor volume (FTV) (Lenalidomide alone, 100 mg/kg ip days 1-5 and 8-12, day 17): 0.45
Fractional tumor volume (FTV) (Lenalidomide alone, 100 mg/kg ip days 1-5 and 8-12, day 21): 0.42
Fractional tumor volume (FTV) (Lenalidomide alone, 100 mg/kg ip days 1-5 and 8-12, day 24): 0.55
Fractional tumor volume (FTV) (Lenalidomide alone, 100 mg/kg ip days 1-5 and 8-12, day 28): 0.46
Regressions Complete [1]: 0/6
Regressions Partial [1]: 0/6
Result [1]: Active
T/C (%) (DAY 17) [1]: 31%
Tumor free survivors day 77 [1]: 0/6

BT062
Regressions Complete (BT062 100 ug/kg): 0/6
Regressions Partial (BT062 100 ug/kg): 0/6
Result (BT062 100 ug/kg): Active
T/C (%) (DAY 17) (BT062 100 ug/kg): 35%
Tumor free survivors day 77 (BT062 100 ug/kg): 0/6
Regressions Complete (BT062 200 ug/kg): 0/6
Regressions Partial (BT062 200 ug/kg): 0/6
Result (BT062 200 ug/kg): Active
T/C (%) (DAY 17) (BT062 200 ug/kg): 14%
Tumor free survivors day 77 (BT062 200 ug/kg): 0/6
Regressions Complete (BT062 400 ug/kg): 1/6
Regressions Partial (BT062 400 ug/kg): 4/6
T/C (%) (DAY 17) (BT062 400 ug/kg): 9%
Tumor free survivors day 77 (BT062 400 ug/kg): 0/6
Fractional tumor volume (FTV) (BT062 100 alone, day 10): 0.93
Fractional tumor volume (FTV) (BT062 100 alone, day 14): 0.75
Fractional tumor volume (FTV) (BT062 100 alone, day 17): 0.52
Fractional tumor volume (FTV) (BT062 100 alone, day 21): 0.53
Fractional tumor volume (FTV) (BT062 100 alone, day 24): 0.44
Fractional tumor volume (FTV) (BT062 100 alone, day 28): 0.33
Fractional tumor volume (FTV) (BT062 200 alone, day 10): 1.02
Fractional tumor volume (FTV) (BT062 200 alone, day 14): 0.45
Fractional tumor volume (FTV) (BT062 200 alone, day 17): 0.13
Fractional tumor volume (FTV) (BT062 200 alone, day 21): 0.08
Fractional tumor volume (FTV) (BT062 200 alone, day 24): 0.11
Fractional tumor volume (FTV) (BT062 200 alone, day 28): 0.13
Fractional tumor volume (FTV) (BT062 400 alone, day 10): 0.94
Fractional tumor volume (FTV) (BT062 400 alone, day 14): 0.44
Fractional tumor volume (FTV) (BT062 400 alone, day 17): 0.09
Fractional tumor volume (FTV) (BT062 400 alone, day 21): 0.04
Fractional tumor volume (FTV) (BT062 400 alone, day 24): 0.04
Fractional tumor volume (FTV) (BT062 400 alone, day 28): 0.04
